Tests used:
[1] = EPA drinking water table, Summer 2002; cited from earlier work
acetylcholinesterase [2] = conditions: commercial kit, package insert; cited from earlier work
acetylcholinesterase [3] = target: acetylcholinesterase (Homo sapiens, UniProt P22303); conditions: 5 mm dots, 20 min incubation; organophosphates oxidized with bromine

By UniProt entry, the sequences of proteins in these tests, tags left out. Where a name states a change or a piece, a line headed by the entry shows the natural chain unless it says otherwise.
UniProt P22303: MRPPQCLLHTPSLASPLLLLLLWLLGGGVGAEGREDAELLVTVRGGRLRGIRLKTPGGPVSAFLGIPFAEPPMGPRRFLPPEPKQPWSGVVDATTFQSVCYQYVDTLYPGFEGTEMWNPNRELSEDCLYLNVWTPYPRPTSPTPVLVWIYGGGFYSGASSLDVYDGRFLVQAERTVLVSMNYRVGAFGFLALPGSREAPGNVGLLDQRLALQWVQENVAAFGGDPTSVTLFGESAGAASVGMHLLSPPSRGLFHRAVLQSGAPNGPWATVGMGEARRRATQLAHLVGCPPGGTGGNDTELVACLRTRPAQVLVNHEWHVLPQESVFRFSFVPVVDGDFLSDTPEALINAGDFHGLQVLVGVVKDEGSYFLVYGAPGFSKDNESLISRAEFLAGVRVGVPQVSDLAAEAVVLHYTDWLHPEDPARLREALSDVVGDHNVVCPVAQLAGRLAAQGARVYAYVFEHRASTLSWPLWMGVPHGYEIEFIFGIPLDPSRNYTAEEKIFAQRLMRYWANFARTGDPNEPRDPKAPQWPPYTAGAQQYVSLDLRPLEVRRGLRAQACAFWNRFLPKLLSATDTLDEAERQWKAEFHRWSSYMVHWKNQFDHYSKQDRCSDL

Parathion (methyl)
HA [1]: 2 µg/L
EnviroLogix IC20 (acetylcholinesterase [2]): 63 μg/L
Porex Dot Test IC20 (acetylcholinesterase [3]): 2 ng/mL

From patent US20050054025A1 (priority 2003, published 2005)
